Measured values: patent publication US20260364088A1, “TASL MIMICKING MOLECULES AND APPLICATIONS THEREOF” (CEMM - FORSCHUNGSZENTRUM FÜR MOLEKULARE MEDIZIN GMBH, priority 2022, published 2026)

The chains behind the UniProt entries cited, without tags or fusion partners.
UniProt Q8N697, whole entry: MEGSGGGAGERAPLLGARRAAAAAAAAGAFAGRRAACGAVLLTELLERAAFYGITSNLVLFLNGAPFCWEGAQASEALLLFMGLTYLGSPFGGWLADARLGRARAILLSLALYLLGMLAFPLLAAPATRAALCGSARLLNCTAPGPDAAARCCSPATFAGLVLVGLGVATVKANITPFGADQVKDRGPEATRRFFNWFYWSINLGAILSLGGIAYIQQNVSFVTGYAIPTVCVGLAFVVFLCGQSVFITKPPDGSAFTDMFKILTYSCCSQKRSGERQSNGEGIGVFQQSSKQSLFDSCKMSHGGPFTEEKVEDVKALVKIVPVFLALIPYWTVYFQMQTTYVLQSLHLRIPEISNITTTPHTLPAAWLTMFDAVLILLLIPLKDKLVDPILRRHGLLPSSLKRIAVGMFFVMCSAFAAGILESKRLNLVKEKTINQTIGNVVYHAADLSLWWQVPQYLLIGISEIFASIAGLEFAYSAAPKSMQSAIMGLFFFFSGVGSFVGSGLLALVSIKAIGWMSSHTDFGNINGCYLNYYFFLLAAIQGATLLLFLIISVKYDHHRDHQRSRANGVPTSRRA

Target: THP1 dual cell (Homo sapiens, UniProt Q8N697)
Assay: THP1 DUAL/ISRE cell reporter assay (R848 stimulated)
Description: CAL-1, THP1 or human primary cells were incubated with dTASL1 and other identified compounds (or the corresponding volume of DMSO vehicle) for 24 h or 48 h at the indicated concentration and subsequently stimulated with R848 (5 μg/ml) for the indicated time. Supernatant or cells were recovered for ELISA, SDS-PAGE or microscopy-based analysis.
THP1 DUAL cells (1×10^5 cells per 96 well) were incubated with compounds for 24 h or 48 h, and subsequently stimulated for 20 h as indicated. Cell culture supernatant were collected, cleared of residual cells by centrifugation and analyzed for NF-κB and ISRE reporter activity according to the manufacturer's instructions. For experiments in 384-well format, compounds were pre-plated at defined concentrations and THP1 dual cells were added at 800 k/well concentration in […]. After incubation for 24 h or 48 h cells were stimulated with […] of a 25 μg/ml stock of R848 or 0.5 μg/ml Pam3CKS4 5× stocks as indicated for 20 h and detected by directly adding Quanti-Luc Plus (Invivogen) solution to the plates, according to the manufacturer's instructions and without adding stabilizer solution. Quanti-Blue detection was carried out according to the manifacturers instructions, with QB reagent and buffer (Invivogen) dissolved in 30 ml water, instead of the 100 ml used for standard detection. […]

CCOc1ccc(-c2cc(C(=O)NCCCN3CCC(C)CC3)c3ccccc3n2)cc1
IC50 (read-out: IC50 24 h, 24 h treatment before R848 stimulation): 8.9 µM | IC50 (read-out: IC50 48 h, 48 h treatment before R848 stimulation): 2.8 µM

Read-outs that look alike come from different tables or passages of the source.
